Experimental data reported in patent publication US20250367263A9, “Therapeutic Regimens and Methods for Treatment of Cardiovascular Risk Factors using a GLP-1R and GCGR Agonist” (Spitfire Pharma LLC, priority 2022, published 2025).

Tested on: non-diabetic obese and overweight subjects
Experiment: Phase II 24-week placebo-controlled study (NCT05295875), interim analysis
Format: in vivo, human
Text: Results presented in this example correspond to a 24-week interim analysis obtained from a placebo-controlled phase II study (ClinicalTrials.gov Identifier: NCT05295875) evaluating pemvidutide (ALT-801) in obese and overweight subjects. Key eligibility criteria were: (1) Men and women, ages 18-75 years; (2) at least one unsuccessful weight loss attempt per Investigator judgement; (3) Body Mass Index (BMI)≥30 kg/m^2 or BMI≥27 kg/m^2 with at least one obesity-related comorbidity (history of cardiovascular disease, hypertension, dyslipidemia, pre-diabetes or obstructive sleep apnea) and (4) non-diabetes (HbAlc≤6.5% and fasting glucose≤125 mg/dL). Eligible subjects were randomized 1:1:1:1 to one of the following treatment arms: Group 1 (39 subjects): pemvidutide 1.2 mg SC once weekly for 24 weeks; Group 2 (40 subjects): pemvidutide 1.8 mg administered subcutaneously once weekly for 24 weeks; Group 3 (40 subjects): pemvidutide 0.6 mg administered subcutaneously for 1 week, 1.2 mg administered subcutaneously for 1 week, 1.8 mg administered subcutaneously once weekly for 2 weeks, followed by 2.4 mg administered subcutaneously once weekly for 20 additional weeks (in sequence) and Group 4 (41 subjects): Placebo administered subcutaneously once weekly for 24 weeks. The randomization of subjects was stratified based on sex and baseline body mass index (BMI<35 kg/m^2 vs. ≥35 kg/m^2). A minimum of 25% of randomized subjects were male. All subjects received counselling on a reduced-calorie diet of 1200-1500 calories for individuals <250 lbs (113.6 kg) and 1500-1800 calories for individuals ≥250 lbs (113.6 kg) and a gradual increase in physical activity (targeting 150 min of physical activity per week) by a qualified healthcare professional at screening and at subsequent visits during the treatment period. Subjects were instructed to record their food intake and physical activity daily, and compliance with lifestyle interventions will be assessed by the investigator on a regular basis. A subgroup of subjects was subjected to MRI-PDFF to evaluate the hepatic fat fraction in as well as composition to measure total body adipose tissue (AT) and adipose tissue-free mass (ATFM).

[1] = week 24, all doses (1.2, 1.8, 2.4 mg per week)

With `CC[C@H](C)[C@H](NC(=O)[C@H](Cc1ccccc1)NC(=O)[C@H](CCC(=O)O)NC(=O)[C@@H]1CCCCNC(=O)CC[C@H](NC(=O)[C@H](CC(=O)O)NC(=O)[C@H](CC(C)C)NC(=O)[C@H](Cc2ccc(O)cc2)NC(=O)[C@H](CCCCN)NC(=O)[C@H](CO)NC(=O)[C@H](Cc2ccc(O)cc2)NC(=O)[C@H](CC(=O)O)NC(=O)[C@H](CO)NC(=O)[C@@H](NC(=O)[C@H](Cc2ccccc2)NC(=O)[C@@H](NC(=O)CNC(=O)[C@H](CCC(N)=O)NC(=O)C(C)(C)NC(=O)[C@@H](N)Cc2c[nH]cn2)[C@@H](C)O)[C@@H](C)O)C(=O)N[C@@H](CCCCNC(=O)[C@H]2O[C@@H](OCCCCCCCCCCCCCCCCCC(=O)O)[C@H](O)[C@@H](O)[C@@H]2O)C(=O)N[C@@H](C)C(=O)N[C@@H](C)C(=O)N1)C(=O)N[C@@H](CCC(N)=O)C(=O)N[C@@H](Cc1c[nH]c2ccccc12)C(=O)N[C@@H](CC(C)C)C(=O)N[C@@H](CC(C)C)C(=O)N[C@@H](CCC(N)=O)C(=O)N[C@H](C(N)=O)[C@@H](C)O` [pemvidutide] the heart rate (24-week treatment at 1.2 mg, 1.8 mg and 2.4 mg) was “does not induce a significant change”, the “systolic and diastolic blood pressures” value (24-week treatment, 1.2, 1.8, 2.4 mg, as opposed to placebo) was “improves” and the “serum lipids as compared to baseline” value [1] was “improvements”. For the same compound, the waist circumference [1] was “significant reduction”.
